From PubChem BioAssay AID624 (Vanderbilt High Throughput Screening Facility, 2007)
Only a part is listed here, and it is no random draw. Calls of active or inactive are those of the source.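 The calls were made as follows: active = fluorescence slope after compound addition differing from the mean of all screened samples at 99.7% confidence, in either direction; inactive = the rest.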

Chains of the proteins cited; added tags and fusions are not shown.
UniProt P18825, whole entry, looked up: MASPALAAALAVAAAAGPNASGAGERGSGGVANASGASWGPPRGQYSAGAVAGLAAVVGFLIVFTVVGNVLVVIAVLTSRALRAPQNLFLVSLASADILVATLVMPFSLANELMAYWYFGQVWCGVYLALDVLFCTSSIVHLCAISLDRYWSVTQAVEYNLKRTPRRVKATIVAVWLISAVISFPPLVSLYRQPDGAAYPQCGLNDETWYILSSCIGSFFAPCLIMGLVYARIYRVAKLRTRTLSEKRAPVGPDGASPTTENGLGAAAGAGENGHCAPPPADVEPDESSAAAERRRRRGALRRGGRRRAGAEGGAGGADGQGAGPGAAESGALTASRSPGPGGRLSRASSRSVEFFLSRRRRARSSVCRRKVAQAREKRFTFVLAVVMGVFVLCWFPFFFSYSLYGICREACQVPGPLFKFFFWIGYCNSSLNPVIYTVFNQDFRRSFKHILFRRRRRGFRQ

target: Alpha-2C adrenergic receptor (Homo sapiens) (UniProt P18825); experiment: compounds altering alpha2C-coupled GIRK flux – cell-based, HEK293 alpha2C/GIRK1/2, thallium flux, primary screen (AID 624); conditions: thallium flux BTC fluorescence, at 10 µM, actives lie on both sides;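 also: slope of fluorescence ratio to pre-addition baseline per second over 15 to 24 s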

Row | Structure (SMILES) | slope
1 | O=P(Nc1nccs1)(c1ccccc1)c1ccccc1 | inactive: 0.00606
2 | CCOP1(=S)c2c(C)nn(CCC#N)c2N=C(c2ccccc2F)N1C (stereo not drawn) | inactive: 0.00323
3 | Cc1ccc(OCC(=O)OC2CN3CCC2CC3)cc1 (stereo not drawn) | inactive: 0.00533
